Assay results: patent US20030171347A1, “Sigma receptor antagonists having anti-cocaine properties and uses thereof” (priority 1998, published 2003)

Biological target: opiate receptors (Rattus norvegicus, UniProt P34975)
Experiment: Opiate receptor competition binding
Conditions: read-out: Opiate; rat brain homogenates, [3H]etorphine or [3H]bremazocine

CN1CCN(CCc2ccc(Cl)c(Cl)c2)CC1 [BD1063]
IC50: > 10 µM
